Source: ChEMBL document CHEMBL2086302, “An investigation into the structure-activity relationships associated with the systematic modification of the β(2)-adrenoceptor agonist indacaterol” (Bioorg Med Chem Lett, 2012)

Organism: Homo sapiens
Assay: Selectivity ratio of Ki for human beta1-adrenoceptor to Ki for human beta2-adrenoceptor

## CCC1=C(CC)CC2=C(C1)CC(NC[C@H](O)c1ccc(O)c3[nH]c(=O)ccc13)C2
  Ratio Ki: 1.7
